Literature values, collected in patent publication US20230117831A1, “MULTI-FUNCTIONAL CHIMERIC MOLECULES” (THE BROAD INSTITUTE, INC., priority 2020, published 2023).

Chains of the proteins cited; added tags and fusions are not shown.
UniProt Q99683, whole entry, species assumed: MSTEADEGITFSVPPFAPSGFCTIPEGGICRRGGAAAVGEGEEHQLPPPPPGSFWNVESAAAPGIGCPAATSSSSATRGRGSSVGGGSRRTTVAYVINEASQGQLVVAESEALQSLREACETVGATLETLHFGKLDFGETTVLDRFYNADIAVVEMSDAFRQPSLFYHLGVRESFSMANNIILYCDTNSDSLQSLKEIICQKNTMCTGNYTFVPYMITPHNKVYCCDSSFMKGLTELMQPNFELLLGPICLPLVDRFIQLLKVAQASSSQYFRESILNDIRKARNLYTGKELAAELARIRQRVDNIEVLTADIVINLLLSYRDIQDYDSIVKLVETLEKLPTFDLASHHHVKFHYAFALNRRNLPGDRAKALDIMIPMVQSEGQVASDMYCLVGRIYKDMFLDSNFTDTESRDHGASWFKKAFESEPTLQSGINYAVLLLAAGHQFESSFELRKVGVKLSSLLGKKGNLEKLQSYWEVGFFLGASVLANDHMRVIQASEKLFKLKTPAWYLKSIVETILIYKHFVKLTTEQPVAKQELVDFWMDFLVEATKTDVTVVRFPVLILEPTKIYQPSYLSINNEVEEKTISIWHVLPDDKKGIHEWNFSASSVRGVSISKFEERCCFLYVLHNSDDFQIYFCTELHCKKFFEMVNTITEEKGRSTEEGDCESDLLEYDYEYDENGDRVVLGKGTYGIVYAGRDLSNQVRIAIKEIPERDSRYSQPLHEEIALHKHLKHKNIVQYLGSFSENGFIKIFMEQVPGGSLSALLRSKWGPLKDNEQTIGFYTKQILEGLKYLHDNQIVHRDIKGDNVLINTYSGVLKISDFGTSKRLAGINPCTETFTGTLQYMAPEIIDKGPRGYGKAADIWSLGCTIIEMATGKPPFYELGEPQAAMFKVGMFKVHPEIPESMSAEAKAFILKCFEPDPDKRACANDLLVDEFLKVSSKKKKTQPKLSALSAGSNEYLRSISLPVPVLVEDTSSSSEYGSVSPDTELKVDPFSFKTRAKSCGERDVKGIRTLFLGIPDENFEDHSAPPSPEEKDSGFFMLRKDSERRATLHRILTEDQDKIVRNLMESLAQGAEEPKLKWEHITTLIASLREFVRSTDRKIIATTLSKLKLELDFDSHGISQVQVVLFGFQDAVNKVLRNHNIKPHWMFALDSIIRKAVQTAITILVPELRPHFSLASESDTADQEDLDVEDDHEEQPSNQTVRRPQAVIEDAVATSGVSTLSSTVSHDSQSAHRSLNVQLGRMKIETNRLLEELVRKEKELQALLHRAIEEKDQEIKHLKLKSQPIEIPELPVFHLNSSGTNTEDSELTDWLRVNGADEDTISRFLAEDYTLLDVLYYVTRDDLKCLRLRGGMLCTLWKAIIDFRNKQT

Biological target: MAP3K5 (Homo sapiens, UniProt Q99683)
Conditions: cited from earlier work

CN[C@@H]1C[C@H]2O[C@@](C)([C@@H]1OC)n1c3ccccc3c3c4c(c5c6ccccc6n2c5c31)C(=O)NC4 [Staurosporine]
ka: 445000 M⁻¹ s⁻¹
